Experimental data published in patent US20220073536A1 (Rigel Pharmaceuticals, Inc., priority 2003, published 2022).
Like-named read-outs stand apart in the source and are kept apart here.

Key:
[1] = tested on: cultured human mast cells (CHMC); assay: CHMC low cell density IgE activation: tryptase assay; assay type: cell-based
Syk kinase = Syk kinase (Homo sapiens, UniProt P43405); assay: Syk kinase biochemical fluorescence polarization assay; conditions: read-out: fp_syk, 11 pt, isolated Syk kinase

Measured: IC50

COC(=O)CNC(=O)c1ccc(Nc2nc(Nc3ccc(OC)c(Cl)c3)ncc2F)cc1
< 10 µM: [1]; read-out: LD Tryptase, CHMC, IgE, 3 pt | [1]; read-out: LD Tryptase, CHMC, IgE, 8 pt | Syk kinase
